# Laboratory results reported in patent US5064637A, “Substituted sulfonamide derivatives which inhibit allergic reactions” (Board of Regents, The University of Texas System, priority 1989, dated 1991).
# Columns and labels:
# Ig to SMX = test: Hapten inhibition of Ig binding to SMX-HSA (RAST for IgE, ELISA for IgG, IgA, IgM); parameters: species or system human; details: free inhibitor; specificity check
# IgG to SMX = test: Example 2: hapten inhibition of IgG binding, ELISA, no preincubation; parameters: species or system human; details: final serum dilution 1:80
# Method: The assay was set up using a 96 well microtiter plate. None of the serum samples were preincubated with inhibitor. Serum used was positive (+) for IgG to SMX, and was used at a final dilution of […] for all wells.
# A variety of binding inhibitors were employed at varying concentrations.
# A 50 microliter volume of each numerically designated inhibitor was added each well of the plate. A 50 microliter volume of serum (1:40 dilution) positive to IgG to SMX was then added to each well. The final dilution of serum in each was then 1:80.
# The microtiter plate was then shaken slightly to mix the contents of each well and then the standard ELISA assay was performed. The plate was then allowed to incubate for 2 hours at room temperature. The plates were then washed and the OD readings taken for each well.
# Percent inhibition was then calculated for each sample on the basis of decrease in OD.
Substance,inhibition of antibody binding to SMX-HSA (in words) (Ig to SMX),% Inhibition (IgG to SMX; inhibitor 0.1 mg/ml),% Inhibition (IgG to SMX; inhibitor 0.3 mg/ml),% Inhibition (IgG to SMX; inhibitor 1 mg/ml),% Inhibition (IgG to SMX; inhibitor 3 mg/ml),% Inhibition (IgG to SMX; inhibitor 10 mg/ml)
"Human serum albumin [HSA, reference compound]",not,–,–,–,–,–
N^4 -sulfamethoxazoyl-human serum albumin [SMX-HSA],inhibition of binding,53%,54%,54%,55%,59%
"penicilloyl-HSA [BPO-HSA, reference compound]",not,–,–,–,–,–
